Test results: PMC12251226, “Comparison of in silico predictions of action potential duration in response to inhibition of IKr and ICaL with new human ex vivo recordings” (PLOS Computational Biology, 2025)

By UniProt entry, the sequences of proteins in these tests, tags left out. Where a name states a change or a piece, a line headed by the entry shows the natural chain unless it says otherwise.
UniProt Q12809: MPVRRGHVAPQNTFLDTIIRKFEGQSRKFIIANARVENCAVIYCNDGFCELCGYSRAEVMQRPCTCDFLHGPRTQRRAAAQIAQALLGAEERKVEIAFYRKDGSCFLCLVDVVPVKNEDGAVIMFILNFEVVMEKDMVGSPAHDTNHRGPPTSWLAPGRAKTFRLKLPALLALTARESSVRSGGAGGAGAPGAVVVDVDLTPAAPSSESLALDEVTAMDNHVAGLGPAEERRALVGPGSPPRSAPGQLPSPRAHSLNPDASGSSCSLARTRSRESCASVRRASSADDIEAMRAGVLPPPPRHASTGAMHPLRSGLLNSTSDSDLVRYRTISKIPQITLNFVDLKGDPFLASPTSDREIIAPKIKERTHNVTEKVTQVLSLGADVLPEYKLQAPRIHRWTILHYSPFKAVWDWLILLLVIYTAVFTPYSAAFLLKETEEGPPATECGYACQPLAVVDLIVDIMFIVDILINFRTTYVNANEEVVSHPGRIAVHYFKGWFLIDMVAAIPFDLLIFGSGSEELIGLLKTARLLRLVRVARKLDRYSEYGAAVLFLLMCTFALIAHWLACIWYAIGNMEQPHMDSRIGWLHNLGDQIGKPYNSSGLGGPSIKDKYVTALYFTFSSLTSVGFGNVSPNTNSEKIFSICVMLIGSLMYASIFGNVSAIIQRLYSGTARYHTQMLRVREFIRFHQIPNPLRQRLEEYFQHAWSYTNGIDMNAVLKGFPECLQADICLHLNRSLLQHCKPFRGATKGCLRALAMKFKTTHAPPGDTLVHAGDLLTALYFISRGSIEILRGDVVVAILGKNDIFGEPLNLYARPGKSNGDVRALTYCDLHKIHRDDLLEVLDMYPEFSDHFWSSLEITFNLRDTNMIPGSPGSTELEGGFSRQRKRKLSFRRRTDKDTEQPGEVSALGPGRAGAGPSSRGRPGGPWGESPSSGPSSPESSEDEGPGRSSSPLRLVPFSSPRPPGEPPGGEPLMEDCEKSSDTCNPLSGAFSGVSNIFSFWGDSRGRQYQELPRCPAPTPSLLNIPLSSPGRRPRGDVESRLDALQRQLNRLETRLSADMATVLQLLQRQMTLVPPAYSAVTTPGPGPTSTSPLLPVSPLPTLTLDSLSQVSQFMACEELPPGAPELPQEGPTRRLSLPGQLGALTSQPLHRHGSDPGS

How the values were obtained:
hERG channels [1] = target: T1, hERG channels (Homo sapiens, UniProt Q12809); experiment: Automated patch clamp, IKr CiPA protocol, CHO cells
hERG channels [2] = target: T1, hERG channels; experiment: Automated patch clamp, IKr Pharm (Roche in-house) protocol, CHO cells

CN1CCCCC1CCN1c2ccccc2Sc2ccc([S+](C)[O-])cc21 (centres unmarked) [Mesoridazine]
IC50 (hERG channels [1]): 565 nM
IC50 (hERG channels [2]): 503 nM
